Measurements as given in patent US8591876B2, “Methods of decreasing sebum production in the skin” (priority 2010, dated 2013).
Where two headings read alike, the source gives them in different places.

Test system: insulin-stimulated SEB-1 sebocytes
Conditions: insulin 1 μg/mL; for Total Lipid Production: average ± SEM from three independent experiments; for % Reduction of total lipid production: versus vehicle

S-nitrogluthione
Total Lipid Production (0.0012 mg/ml): 3630 ± 448 counts per minute/10^6 cells/hr | % Reduction of total lipid production (0.0012 mg/ml): 18.1% | Total Lipid Production (0.012 mg/ml): 3430 ± 459 counts per minute/10^6 cells/hr | % Reduction of total lipid production (0.012 mg/ml): 22.6% | Total Lipid Production (0.12 mg/ml): 4100 ± 740 counts per minute/10^6 cells/hr | % Reduction of total lipid production (0.12 mg/ml): 7.4%
